In the assay the test system is influenza virus (multiple flu strains). As to the kind of experiment: organism not typed. As to conditions: MDCK.
[1] abbreviates: read-out: NA Alaska H3N2, NA assay, Alaska H3N2 strain.
Setting [2] is: read-out: NA CAL H1N1, NA assay, CAL H1N1 strain.
Where [3] appears, read: read-out: NA Alaska H3N2 IC50, NA assay, Alaska H3N2 strain.
The mark [4] stands for this setting: read-out: NA CAL H1N1 IC50, NA assay, CAL H1N1 strain.
Setting [5] is: read-out: NA—PR8 H1N1, NA assay, PR8 H1N1 strain.

Like-named read-outs stand apart in the source and are kept apart here.

With `NC(=O)c1cc(-c2ccc(OCc3cnc(N4CCOCC4)nc3)cc2)c(C(F)(F)F)[nH]c1=O` [Example 122, 5-(4-((2-morpholinopyrimidin-5-yl)methoxy)phenyl)-2-oxo-6-(trifluoromethyl)-1,2-dihydropyridine-3-carboxamide], the IC50 is, setting by setting: under setting [1], 100 to 1000 nM; under setting [2], 10000 to 25000 nM.
In the same order, the values of `CN(C)c1ncc(COc2ccc(-c3cc(C(N)=O)c(=O)[nH]c3C(F)(F)F)cc2)cn1` [Example 160, 5-(4-((2-(dimethylamino)pyrimidin-5-yl)methoxy)phenyl)-2-oxo-6-(trifluoromethyl)-1,2-dihydropyridine-3-carboxamide] are 100 to 1000 nM and 10000 to 25000 nM.
`CS(=O)(=O)CCOc1ccc(-c2cc(C(N)=O)c(=O)[nH]c2C(F)(F)F)cc1` [Example 256, 5-(4-(2-(methylsulfonyl)ethoxy)phenyl)-2-oxo-6-(trifluoromethyl)-1,2-dihydropyridine-3-carboxamide]: the IC50 under setting [3] fell in the range of 100 to 1000 nM and the IC50 under setting [4] lay in the range of 5000 to 10000 nM.
As to `NC(=O)c1cc(-c2ccc(OCC(=O)N3CCOCC3)cc2)c(C(F)(F)F)[nH]c1=O` [Example 199, 5-(4-(2-morpholino-2-oxoethoxy)phenyl)-2-oxo-6-(trifluoromethyl)-1,2-dihydropyridine-3-carboxamide], the IC50 under setting [1] was in the range of 1000 to 5000 nM and the IC50 under setting [2] was 25000 to 50000 nM.
`COCOc1ccc(-c2cc(C(N)=O)c(=O)[nH]c2C(F)(F)F)cc1` [Example 13, 5-(4-(methoxymethoxy)phenyl)-2-oxo-6-(trifluoromethyl)-1,2-dihydropyridine-3-carboxamide]: the IC50 under setting [5] fell in the range of 1000 to 5000 nM.
For `NC(=O)c1cc(-c2ccc(OCc3ccc4cc[nH]c4c3)cc2)c(C(F)(F)F)[nH]c1=O` [Example 86, 5-(4-((1H-indol-6-yl)methoxy)phenyl)-2-oxo-6-(trifluoromethyl)-1,2-dihydropyridine-3-carboxamide], the IC50 reads like this: under setting [1], 100 to 1000 nM; under setting [2], 10000 to 25000 nM.
Consider `N#Cc1cncc(COc2ccc(-c3cc(C(N)=O)c(=O)[nH]c3C(F)(F)F)cc2)c1` [Example 99, 5-(4-((5-cyanopyridin-3-yl)methoxy)phenyl)-2-oxo-6-(trifluoromethyl)-1,2-dihydropyridine-3-carboxamide], for which the IC50 under setting [1] was 10 to 100 nM and the IC50 under setting [2] lay in the range of 100 to 1000 nM.
`NC(=O)c1cc(-c2ccc(OCc3cc([N+](=O)[O-])ccc3Cl)cc2)c(C(F)(F)F)[nH]c1=O` [Example 108, 5-(4-((2-chloro-5-nitrobenzyl)oxy)phenyl)-2-oxo-6-(trifluoromethyl)-1,2-dihydropyridine-3-carboxamide]: the IC50 under setting [1] fell in the range of 100 to 1000 nM and the IC50 under setting [2] lay in the range of 100 to 1000 nM.
`C[C@H]1COC[C@@H](COc2ccc(-c3cc(C(N)=O)c(=O)[nH]c3C(F)(F)F)cc2)O1` [Example 330, 5-(4-(((2S,6S)-6-methyl-1,4-dioxan-2-yl)methoxy)phenyl)-2-oxo-6-(trifluoromethyl)-1,2-dihydropyridine-3-carboxamide]: the IC50 runs as follows: under setting [3], 10 to 100 nM; under setting [4], 10 to 100 nM.
Regarding `CN1CCOCC1COc1ccc(-c2cc(C(N)=O)c(=O)[nH]c2C(F)(F)F)cc1` (stereo not shown) [Example 247, 5-(4-((4-methylmorpholin-3-yl)methoxy)phenyl)-2-oxo-6-(trifluoromethyl)-1,2-dihydropyridine-3-carboxamide], the IC50 is, setting by setting: under setting [3], 100 to 1000 nM; under setting [4], 1000 to 5000 nM.
Regarding `NC(=O)c1cc(-c2ccc(OCc3cncc(-c4ccoc4)c3)cc2)c(C(F)(F)F)[nH]c1=O` [Example 178, 5-(4-((5-(furan-3-yl)pyridin-3-yl)methoxy)phenyl)-2-oxo-6-(trifluoromethyl)-1,2-dihydropyridine-3-carboxamide], the IC50 under setting [1] fell in the range of 10 to 100 nM and the IC50 under setting [2] is 100 to 1000 nM.
As for `NC(=O)c1cc(-c2ccc(OCc3cnc(NCC4CC4)nc3)cc2)c(C(F)(F)F)[nH]c1=O` [Example 161], the IC50 is 10 to 100 nM under setting [1] and 100 to 1000 nM under setting [2].
Take `N#Cc1ccc(COc2ccc(-c3cc(C(N)=O)c(=O)[nH]c3C(F)(F)F)cc2)cc1` [Example 77, 5-(4-((4-cyanobenzyl)oxy)phenyl)-2-oxo-6-(trifluoromethyl)-1,2-dihydropyridine-3-carboxamide]: the IC50 is, setting by setting: under setting [1], 100 to 1000 nM; under setting [2], 5000 to 10000 nM.
On to `COc1ncccc1COc1ccc(-c2cc(C(N)=O)c(=O)[nH]c2C(F)(F)F)cc1` [Example 136, 5-(4-((2-methoxypyridin-3-yl)methoxy)phenyl)-2-oxo-6-(trifluoromethyl)-1,2-dihydropyridine-3-carboxamide], for which the IC50 reads like this: under setting [1], 1000 to 5000 nM; under setting [2], 1000 to 5000 nM.
As for `NC(=O)c1cc(-c2ccc(OCc3ccncc3F)cc2)c(C(F)(F)F)[nH]c1=O` [Example 139, 5-(4-((3-fluoropyridin-4-yl)methoxy)phenyl)-2-oxo-6-(trifluoromethyl)-1,2-dihydropyridine-3-carboxamide], the IC50 was 100 to 1000 nM under setting [1] and 1000 to 5000 nM under setting [2].
Turning to `NC(=O)c1cc(-c2ccc(OCc3cccc(C(F)(F)F)c3)cc2)c(C(F)(F)F)[nH]c1=O` [Example 79, 2-oxo-6-(trifluoromethyl)-5-(4-((3-(trifluoromethyl)benzyl)oxy)phenyl)-1,2-dihydropyridine-3-carboxamide], the IC50 under setting [1] lay in the range of 100 to 1000 nM and the IC50 under setting [2] was 100 to 1000 nM.
With `NC(=O)c1cc(-c2ccc(OCC3COCC4(COC4)N3)cc2)c(C(F)(F)F)[nH]c1=O` (stereo not shown) [Example 205, 5-(4-((2,8-dioxa-5-azaspiro[3.5]nonan-6-yl)methoxy)phenyl)-2-oxo-6-(trifluoromethyl)-1,2-dihydropyridine-3-carboxamide], the IC50 is, setting by setting: under setting [1], 1000 to 5000 nM; under setting [2], 10000 to 25000 nM.
With `NC(=O)c1cc(-c2ccc(OC[C@H]3CO[C@H]4[C@@H](O3)C4(F)F)cc2)c(C(F)(F)F)[nH]c1=O` [Example 391, 5-(4-((trans-7,7-difluoro-2,5-dioxabicyclo[4.1.0]heptan-3-yl)methoxy)phenyl)-2-oxo-6-(trifluoromethyl)-1,2-dihydropyridine-3-carboxamide], the IC50 lay within 10 to 100 nM under setting [3] and 10 to 100 nM under setting [4].
As for `NC(=O)c1cc(-c2ccc(OCc3cnc(OCC4CCOC4)nc3)cc2)c(C(F)(F)F)[nH]c1=O` (stereo not shown) [Example 157, 2-oxo-5-(4-((2-((tetrahydrofuran-3-yl)methoxy)pyrimidin-5-yl)methoxy)phenyl)-6-(trifluoromethyl)-1,2-dihydropyridine-3-carboxamide], the IC50 by setting is: under setting [1], 100 to 1000 nM; under setting [2], 5000 to 10000 nM.
For the compound `Cc1cc(C)nc(COc2ccc(-c3cc(C(N)=O)c(=O)[nH]c3C(F)(F)F)cc2)n1` [Example 140, 5-(4-((4,6-dimethylpyrimidin-2-yl)methoxy)phenyl)-2-oxo-6-(trifluoromethyl)-1,2-dihydropyridine-3-carboxamide], the IC50 by setting is: under setting [1], 1000 to 5000 nM; under setting [2], 5000 to 10000 nM.
Take `NC(=O)c1cc(-c2ccc(OCC(=O)Nc3cccnc3)cc2)c(C(F)(F)F)[nH]c1=O` [Example 201, 2-oxo-5-(4-(2-oxo-2-(pyridin-3-ylamino)ethoxy)phenyl)-6-(trifluoromethyl)-1,2-dihydropyridine-3-carboxamide]: the IC50 under setting [1] was in the range of 1000 to 5000 nM and the IC50 under setting [2] lay in the range of 10000 to 25000 nM.
As to `COc1ccc(-c2cc(C(N)=O)c(=O)[nH]c2C(F)(F)F)cc1Cl` [Example 18, 5-(3-chloro-4-methoxyphenyl)-2-oxo-6-(trifluoromethyl)-1,2-dihydropyridine-3-carboxamide], under setting [5], the IC50 lay within 1000 to 5000 nM.
As for `NC(=O)c1cc(-c2ccc(CC3(O)CCOCC3)cc2)c(C(F)(F)F)[nH]c1=O` [Example 50, 5-(4-((4-hydroxytetrahydro-2H-pyran-4-yl)methyl)phenyl)-2-oxo-6-(trifluoromethyl)-1,2-dihydropyridine-3-carboxamide], the IC50 lay within 100 to 1000 nM under setting [1] and 1000 to 5000 nM under setting [2].
For `NC(=O)c1cc(-c2cccc(CN3CCOCC3)c2)c(C(F)(F)F)[nH]c1=O` [Example 23, 5-(3-(morpholinomethyl)phenyl)-2-oxo-6-(trifluoromethyl)-1,2-dihydropyridine-3-carboxamide], under setting [5], the IC50 was 5000 to 10000 nM.
Consider `NC(=O)c1cc(-c2ccc(OCc3cnc(NCCO)nc3)cc2)c(C(F)(F)F)[nH]c1=O` [Example 162, 5-(4-((2-((2-hydroxyethyl)amino)pyrimidin-5-yl)methoxy)phenyl)-2-oxo-6-(trifluoromethyl)-1,2-dihydropyridine-3-carboxamide], for which the IC50 under setting [1] was in the range of 100 to 1000 nM and the IC50 under setting [2] was in the range of 10000 to 25000 nM.
As for `NC(=O)c1cc(-c2ccc(OCCn3ccnc3)cc2)c(C(F)(F)F)[nH]c1=O` [Example 258, 5-(4-(2-(1H-imidazol-1-yl)ethoxy)phenyl)-2-oxo-6-(trifluoromethyl)-1,2-dihydropyridine-3-carboxamide], the IC50 fell in the range of 1000 to 5000 nM under setting [1] and 25000 to 50000 nM under setting [2].
For `CS(=O)(=O)c1ccc(COc2ccc(-c3cc(C(N)=O)c(=O)[nH]c3C(F)(F)F)cc2)cc1` [Example 133, 5-(4-((4-(methylsulfonyl)benzyl)oxy)phenyl)-2-oxo-6-(trifluoromethyl)-1,2-dihydropyridine-3-carboxamide] the same measures were 1000 to 5000 nM and 10000 to 25000 nM.
For the compound `NC(=O)c1cc(-c2ccc(OCc3cccnc3)cc2)c(C(F)(F)F)[nH]c1=O` [Example 72, 2-oxo-5-(4-(pyridin-3-ylmethoxy)phenyl)-6-(trifluoromethyl)-1,2-dihydropyridine-3-carboxamide], the IC50 fell in the range of 10 to 100 nM under setting [1] and 100 to 1000 nM under setting [2].
As for `NC(=O)c1cc(-c2ccc(O)cc2)c(C(F)(F)F)[nH]c1=O` [Example 3, 5-(4-hydroxyphenyl)-2-oxo-6-(trifluoromethyl)-1,2-dihydropyridine-3-carboxamide], the IC50 under setting [1] lay within 1000 to 5000 nM.
As to `CN(C)CCCOc1ccc(-c2cc(C(N)=O)c(=O)[nH]c2C(F)(F)F)cc1` [Example 21, 5-(4-(3-(dimethylamino)propoxy)phenyl)-2-oxo-6-(trifluoromethyl)-1,2-dihydropyridine-3-carboxamide], the IC50 under setting [5] was in the range of 5000 to 10000 nM.

For the origin of these results see US20240360082A1, “SUBSTITUTED PYRIDONE COMPOUNDS USEFUL TO TREAT ORTH[…]” (priority 2021, published 2024).
